Bioassay records (PubChem)
CCT modulator: modulators of cytosolic chaperonin (CCT/TRiC) activity | activity change, % (concentration not given with the values), hits read low | purified chaperonin ATPase assay, HTRF ADP detection, 30 min | 0.3% of 360,000 active; in the data active = activity change below about -30%
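Nucleotide hydrolysis assay: TRiC at 20–40 nM final (set by batch activity) with 10 uM ATP, 30 min at 37 °C, in presence of 76 uM compound. Detection by competitive ADP HTRF, 30 min ambient.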
Rango release inh: inhibition of RanGTP-driven Rango-importin beta dissociation | O95149+P62826 | Biochemical FRET Rango-importin beta, RanGTP-induced dissociation | Potency, µM (highest dose often 46.1 µM) | 0.071% of 340,000 active | AID 540253; also: nearly all actives have a fitted effect of over 45% in size
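Recombinant Rango FRET biosensor (EYFP–snurportin 1 IBB–cerulean CFP10) at 0.1 uM premixed with 0.25 uM importin beta in PBS, 1 mM DTT, 0.02% Tween-20, 0.1% BSA. Compound added 5 min; RanGTP-RCC1 (0.6 uM Ran, 2 mM GTP, 0.2 uM RCC1) then triggers release, read at 45 min.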
MmCpn inh: blocks the Methanococcus maripaludis chaperonin Mm-Cpn | AID 504842 | purified Mm-Cpn ATPase, ADP Transcreener TR-FRET | Potency, µM (series often up to 76.9 µM), usual class: inhibitors | 0.031% of 330,000 active; active = well fitted inhibition curve with a large enough effect; inconclusive = small, poorly fitted or top-dose-only effect; also: nearly all actives have a fitted effect of over 80% in size
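Inhibition of chaperonin ATP hydrolysis is measured as reduced ADP production, detected by competitive TR-FRET in which signal falls with ADP. Final enzyme 25 nM and ATP 10 uM, reacted 30 min at 37°C.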
Rango complex inh: Rango-importin beta binding inhibition. 0.031% of 340,000 active. Rango CFP/YFP FRET sensor + importin beta, 45 min. Potency, µM (top dose mostly 92.2 µM); also: nearly all actives have a fitted effect of over 15% in size
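FRET biosensor (snurportin 1 IBB flanked by EYFP and cerulean), 50 nM, with compound 5 min, then 0.125 microM importin beta in PBS, 1 mM DTT, 0.02% Tween-20, 0.1% BSA. CFP/YFP ratio read after 45 min at room temperature; pre-read flags interference.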
Hits are given with their value; - = inactive; ? = inconclusive; . = not tested or not shown. In the library only some 0.39% were active in any assay of this set; here they are far more common. Unless noted, calls follow the shape of the full dose curve.

SMILES	CCT modulator	Rango release inh	MmCpn inh	Rango complex inh
O=C(CSc1ncnc2ccccc12)c1ccc2c(c1)OCCO2	-	-	20µM	?
O=C(CSc1nnc(SCc2cccc3ccccc23)s1)c1ccc2c(c1)OCO2	-	-	45µM	-
O=C(CSc1nnc(SCc2cccc3ccccc23)s1)Nc1ccc(C(=O)O)cc1	-	-	-	-
COc1ccc(C)cc1Nc1c2c(nc3ccccc13)CCC2	-34	-	-	-
COc1ccccc1C(=O)NCCC(=O)NCc1ccccn1	-	-	-	-
CC(=O)Nc1ccc(S[C@@H](CCN2CC[C@H](C(C)(C)C)CCC2=O)c2ccccc2)cc1	-36	-	-	-
COC(=O)C(C)Oc1ccc2c(c1)O/C(=C\c1ccco1)C2=O (stereo unspecified)	-	21µM	-	?
CSc1ccc(CN2CCC(C)(Oc3ccc(C(C)=O)cc3)C2)cc1 (stereo unspecified)	-	.	.	.
OCc1cn(-c2ccccc2)nc1-c1ccc(-c2nn(-c3ccccc3)cc2CO)cc1	-	-	-	-
Cc1ccc(-c2nn(-c3ccccc3)cc2CSC(=N)N)cc1	-59	-	-	-
CCn1c(CNC(=O)C2CCCCC2)cc2ccccc21	-52	-	-	-
Cn1c(CNC(=O)C2CCCCC2)cc2ccccc21	-	?	-	-
O=C(Nc1nnc(SCc2ccccc2)s1)c1cc2c(s1)CCCC2	-61	-	-	-
CCOC(=O)n1c2ccccc2c(=O)n1CCO	-33	.	.	.
Cc1cc2ccccc2n1CCNC(=O)c1cccs1	-	?	28µM	?
Cc1cc(C)c(C#N)c(Nc2cccc(C)c2C)n1	-44	-	-	-
O=C(O)c1ccc(S(=O)(=O)N[C@H](Cc2ccc(O)cc2)C(=O)O)cc1	.	.	-	.
COC(=O)C(C(=O)OC)=C(/C=C/C=C/N(C)C)N(C)C	-	9.2µM	-	?
COC(=O)C(C(=O)OC)=C(/C=C/N(C)C)N(C)C	-	-	-	-
COC(=O)c1ccc(NC(=S)N2CCN(C(=O)c3ccco3)CC2)cc1	-40	-	-	-
O=C(c1cccc(S(=O)(=O)N2CCN(c3ccc(F)cc3)CC2)c1)N1CCN(c2ccccc2O)CC1	-	-	.	-
O=S(=O)(/C=C/C=C/S(=O)(=O)c1ccccc1)c1ccccc1	-	-	.	-
C/C(=N/N=C/c1ccccc1O)c1ccccc1O	-	?	-	37µM
CCOc1cccc(-c2nc(C(N)=O)c3[nH]c(=O)n(-c4cccc(Cl)c4)c3n2)c1O	-37	-	-	-
CCOc1ccccc1-c1nc(C(N)=O)c2[nH]c(=O)n(-c3cccc(C)c3)c2n1	-	-	-	-
SMILES	CCT modulator	Rango release inh	MmCpn inh	Rango complex inh
COc1cc2c(cc1OC)C1(Nc3c-2c(C)nn3-c2ccccc2)C(=O)Nc2ccccc21 (stereo unspecified)	-	-	-	?
CCc1nn(-c2ccccc2)c2c1-c1cc(OC)c(OC)cc1C1(N2)C(=O)Nc2ccccc21 (stereo unspecified)	-	16µM	-	?
CC(C#N)(NC(=O)CN1CCN(S(=O)(=O)c2cccc(F)c2)CC1)C1CC1 (stereo unspecified)	-	.	.	.
CCCNC(=O)CN1C(=O)COc2ccc(S(=O)(=O)N3CC(C)CC(C)C3)cc21 (stereo unspecified)	-46	-	-	-
CC1(C)c2[nH]c3ccccc3c2C[C@@H]2C(=O)N(Cc3ccccc3)C(=O)N21	.	21µM	.	?
CC1(C)c2[nH]c3ccccc3c2C[C@H]2C(=O)N(Cc3ccccc3)C(=O)N21	.	-	.	-
CC(=O)Oc1ccc(C(=O)Nc2ccc(S(=O)(=O)N3CCOCC3)cc2)cc1	-	-	-	-
NC(=S)Nc1cccc(-c2n[nH]c(=S)o2)c1	-	-	?	-
Cc1ccc(NC(=S)Nc2cccc(-c3n[nH]c(=S)o3)c2)cc1	-	-	50µM	-
CCc1nc2ccc(C(=O)NCCCn3ccnc3)cn2c1N(C)Cc1cc2ccccc2s1	-	.	.	.
COc1ccc(CCNCCC(=O)Nc2c(C)cc(C)cc2C)cc1OC	-	-	-	-
COc1ccc(CNCCCC(=O)Nc2c(Cl)ccc(C)c2Cl)cc1OC	-48	-	-	-
CCn1c(=O)c2[nH]c(SC)nc2n(CC)c1=O	-	.	.	.
COc1cc(S(=O)(=O)n2ccc(C)n2)ccc1Cl	-48	-	-	-
CCC(=O)Nc1c(C(=O)N2CCN(c3ccccn3)CC2)cnn1-c1ccc(C)cc1	-	-	-	-
CCC(=O)Nc1c(C(=O)N2CCN(c3ccccn3)CC2)cnn1-c1ccc(Cl)cc1	-57	-	-	-
Cc1nn(Cc2ccccc2Cl)c2sc(C(=O)Nc3nccs3)cc12	-57	-	-	-
Cc1nn(Cc2ccc(F)cc2)c2sc(C(=O)Nc3nccs3)cc12	-	-	-	-
N#Cc1cccc(C(=O)OCC(=O)NC(=O)NC2CCCCC2)c1	-42	-	-	-
O=C(COC(=O)c1cccc(OC(F)F)c1)NC(=O)NC1CCCCC1	-	-	-	-
Cc1cc2nc3ccc(=[N+](C)C)cc-3sc2cc1N	-	-	32µM	-
CC(C)N(C(=O)c1ccc(C(=O)Nc2ccc([N+](=O)[O-])cc2)cc1)C(C)C	-32	-	-	-
N#C/C(=C\c1cc(Cl)cc(Cl)c1O)C(=O)NC1CCCCC1	-	6.5µM	-	?
CNc1ncnc2ccc(-c3c(C)noc3C)cc12	.	.	-	.
Cc1cccc(CN2C(=O)N/C(=C/c3cc(C)n(-c4ccccn4)c3C)C2=O)c1	-	5.2µM	-	?
SMILES	CCT modulator	Rango release inh	MmCpn inh	Rango complex inh
CCCNC(=O)C(Cc1ccccc1C)NC(=O)c1ccc(C#N)cc1 (stereo unspecified)	-38	-	-	-
CN(CC(=O)NCc1cccs1)CC(=O)Nc1ccccc1Cl	-	.	.	.
O=C(Nc1cc(S(=O)(=O)N2CCOCC2)ccc1N1CCCC1)c1ccccc1F	-	.	.	.
O=C(Nc1cc(S(=O)(=O)N2CCOCC2)ccc1N1CCCCC1)c1ccccc1Br	-33	-	?	-
OCC[C@@H]1C[C@H](O)[C@@H](O)[C@@]2(OCCCc3cc(C(F)(F)F)ccc32)O1	-	.	.	.
Cc1ccn2c(=O)c(C(=O)NCCN3CCOCC3)c(O)nc2c1	-	-	-	-
O=C(NCCN1CCOCC1)c1c(O)nc2ccccn2c1=O	-72	-	-	?
Cc1nc2ccc(NC(=O)c3ccc(C)c(S(=O)(=O)N4CCOCC4)c3)cc2s1	-	-	-	-
CCOC(=O)CC(=O)CSc1nc2c(c(-c3cccs3)c1C#N)CCC2	-	21µM	-	?
CCOC(=O)CC(=O)CSc1nc2c(cc1C#N)CCC2	-	?	-	?
O=C1CN(S(=O)(=O)c2cccc(Br)c2)CCN1	-	-	-	-
CCCCN(CCCC)C(=S)N/N=C/c1c(C)[nH]n(-c2ccccc2)c1=O	-89	-	-	?
CCN1C[C@@H]2[C@@H]3C(=O)N(C)C(=O)[C@@H]3[C@](CC)(C1=O)N2C(=O)c1ccc(C)cc1	-	-	.	-
